The numbers were not newly measured in patent EP3494998A1, “GLYCOSYLATED PSMA INHIBITORS FOR IMAGING AND ENDORADIOTHERAPY” (Technische Universität München, priority 2017, dated 2019), which cites them from elsewhere.

The conditions of this data set: 68Ga- and 177Lu-18, data from a previously published report (Robu 2016); cited from earlier work.

As to [^68Ga]PSMA I&T [^nat/68Ga-18], the logP was -4.31 ± 0.32.

The term logP denotes the decadic logarithm of the partition coefficient of the neutral form, usually between octanol and water.
